ChEMBL document CHEMBL2169848, “Synthesis physicochemical profile and PAMPA study of new NO-donor edaravone co-drugs” (Bioorg Med Chem, 2012)

Tested on: Thoracic aorta
Assay: Vasodilatory activity in Wistar rat denuded thoracic aorta assessed as inhibition of L-phenylephrine-induced contraction
Type: functional, tissue-based
How it was run: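 Endothelium-denuded thoracic aorta strips from male Wistar rats (180–200 g) in gassed Krebs-type buffer at 37 °C, pH 7.4. Strips equilibrated 1.5 h, then contracted with 1 µM L-phenylephrine. Cumulative concentrations added at plateau and isometric tension recorded. EC50 (±SEM) in µM from at least five experiments.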

## O=[N+]([O-])OCC(CCCCO)O[N+](=O)[O-] (configuration not stated)
  inhibition: Dose-dependent effect

## O=C(O)CCCC(CO[N+](=O)[O-])O[N+](=O)[O-] (configuration not stated)
  inhibition: Dose-dependent effect
